Assay results: US20180340001A1, “Probes for 18F Positron Emission Tomography Imaging” (The Texas A&M University System, priority 2017, published 2018)

Tests used:
[1] = Hydrolytic stability monitored by 19F NMR in phosphate buffer pH 7.5; conditions: D2O-CD3CN (8/2 vol), pH 7.5, phosphate buffer 500 mM
[2] = Stability on exposure to ambient atmosphere; conditions: white powder may become an acidic oil (pH<2) after 15 min exposure to air

SMILES: F[P-](F)(F)(F)(F)c1ccccc1.[K+]
- time to complete hydrolysis [1]: less than 5 min
- stability to ambient atmosphere [2]: hydrolysed
